Test results reported in patent EP1099690A1, “MONOCYCLIC $g(b)-LACTAM COMPOUNDS AND CHYMASE INHIBITORS CONTAINING THE SAME” (SHIONOGI & CO., LTD., priority 1998, dated 2000).

Amino acid sequences for entries named in this document (tags omitted). Residues count along the entry.
UniProt P23946, 22-247 limits assumed: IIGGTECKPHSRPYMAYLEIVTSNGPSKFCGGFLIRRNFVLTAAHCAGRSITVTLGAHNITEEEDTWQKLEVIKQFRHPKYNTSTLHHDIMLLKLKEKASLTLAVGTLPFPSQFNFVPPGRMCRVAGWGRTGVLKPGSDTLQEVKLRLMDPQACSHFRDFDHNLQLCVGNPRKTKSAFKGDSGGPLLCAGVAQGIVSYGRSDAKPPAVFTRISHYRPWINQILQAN

Target: human chymase (Homo sapiens, UniProt P23946)
Assay: Chymase inhibitory activity (Suc-Ala-Ala-Pro-Phe-pNA substrate, absorption 405 nm)
Conditions: purified human chymase, 30 minutes at 37 °C preincubation, substrate 0.5 mM

With CCOc1ccccc1C[C@@H]1C(=O)N(C(=O)N[C@@H](c2ccccc2)C(C)CC)[C@H]1Oc1ccc(C(=O)O)cc1 (stereo partly drawn) as the compound, how does the IC50 read?
The IC50 was 10 nM.

Which IC50 does the source give for CCCC(NC(=O)N1C(=O)[C@@H](Cc2ccccc2OC)[C@@H]1Oc1ccc(C(=O)O)cc1)c1ccc2c(c1)OCO2 (stereo partly drawn) here?
Its IC50 is 2.25 nM.

CC(NC(=O)N1C(=O)C(Cc2ccccc2)C1Oc1ccc(C=CC(=O)N2CCCC2C(N)=O)cc1)c1ccccc1 (stereo not drawn) was tested. Which IC50 did it give?
The IC50 was 3 nM.

Which IC50 does the source give for CCCC(NC(=O)N1C(=O)[C@@H](Cc2ccccc2OC)[C@@H]1Oc1ccc(C(=O)N2CCN(C)CC2)cc1)c1ccc2c(c1)OCO2 (stereo partly drawn) here?
Its IC50 is 0.26 nM.

Which IC50 does the source give for CC(NC(=O)N1C(=O)C(Cc2ccccc2)C1Oc1ccc(C(=O)N2CCCC2C(N)=O)cc1)c1ccccc1 (stereo not drawn) here?
Its IC50 is 0.7 nM.

For CCCC(NC(=O)N1C(=O)[C@@H](Cc2ccccc2OC)[C@@H]1Oc1ccc(C(=O)N2CCN(C3CCCCC3)CC2)cc1)c1ccc2c(c1)OCO2 (stereo partly drawn), which IC50 is on record?
The IC50 was 2.1 nM.
